Read-outs that look alike come from different tables or passages of the source.
What was measured:
[1] = system: Male Sprague-Dawley rats; conditions: rat, in vivo
[2] = system: Male Sprague-Dawley rats; conditions: rat, in vivo; remark: listed apart in the source
[3] = system: Male Sprague-Dawley rats; conditions: rat, in vivo; remark: listed apart in the source
[4] = system: Male Sprague-Dawley rats; conditions: rat, in vivo; remark: listed apart in the source
[5] = system: G proteins coupled to the D2-like receptor; conditions: rat, in vivo
[6] = system: Gsα; conditions: rat, in vivo
[7] = system: cAMP-dependent protein kinase A (PKA); conditions: in vivo
[8] = system: cAMP response element-binding protein (CREB); conditions: in vivo

SMILES: CCCN1CCC[C@@H]2Cc3n[nH]cc3C[C@H]21 [quinpirole]
- effect of acute treatment on PPI [1]: significantly reduced PPI
- change of PPI upon repeated treatment ([1]; 0.1 mg/kg): increased slightly
- effect of repeated treatment on PPI disruption ([1]; 0.3 mg/kg): did not affect PPI disruption
- effect on mean startle response [2]: significantly reduced
- effect on mean startle responses to pulse trials [2]: Neither acute nor repeated quinpirole treatment altered mean startle responses
- effect on PPI on day 1 [3]: significant PPI disruption
- effect on mean startle responses to pulse trials [4]: Neither acute nor 28 days of repeated quinpirole treatment affected mean startle responses
- effect on dopamine-stimulated [35S]GTPγS binding [5]: has no effect
- effect on NAc Gsα protein levels [6]: nor were treatment effects detected
- PKA activity in the nucleus accumbens (NAc) [7]: effectively stimulated
- phosphorylation of CREB in the nucleus accumbens [8]: increased phosphorylation

From patent US20050171139A1, “Treating psychotic symptoms” (priority 2003, published 2005)
